From patent publication US20240207263A1, “SELECTIVE MODULATORS OF ATAXIA […] MUTATED (ATM) KINASE AND USES THEREOF” (priority 2021, published 2024)
Like-named read-outs stand apart in the source and are kept apart here.

Amino acid sequences for entries named in this document (tags omitted). A change or cut given only in a name is not applied to a line headed by its entry.
UniProt Q13315: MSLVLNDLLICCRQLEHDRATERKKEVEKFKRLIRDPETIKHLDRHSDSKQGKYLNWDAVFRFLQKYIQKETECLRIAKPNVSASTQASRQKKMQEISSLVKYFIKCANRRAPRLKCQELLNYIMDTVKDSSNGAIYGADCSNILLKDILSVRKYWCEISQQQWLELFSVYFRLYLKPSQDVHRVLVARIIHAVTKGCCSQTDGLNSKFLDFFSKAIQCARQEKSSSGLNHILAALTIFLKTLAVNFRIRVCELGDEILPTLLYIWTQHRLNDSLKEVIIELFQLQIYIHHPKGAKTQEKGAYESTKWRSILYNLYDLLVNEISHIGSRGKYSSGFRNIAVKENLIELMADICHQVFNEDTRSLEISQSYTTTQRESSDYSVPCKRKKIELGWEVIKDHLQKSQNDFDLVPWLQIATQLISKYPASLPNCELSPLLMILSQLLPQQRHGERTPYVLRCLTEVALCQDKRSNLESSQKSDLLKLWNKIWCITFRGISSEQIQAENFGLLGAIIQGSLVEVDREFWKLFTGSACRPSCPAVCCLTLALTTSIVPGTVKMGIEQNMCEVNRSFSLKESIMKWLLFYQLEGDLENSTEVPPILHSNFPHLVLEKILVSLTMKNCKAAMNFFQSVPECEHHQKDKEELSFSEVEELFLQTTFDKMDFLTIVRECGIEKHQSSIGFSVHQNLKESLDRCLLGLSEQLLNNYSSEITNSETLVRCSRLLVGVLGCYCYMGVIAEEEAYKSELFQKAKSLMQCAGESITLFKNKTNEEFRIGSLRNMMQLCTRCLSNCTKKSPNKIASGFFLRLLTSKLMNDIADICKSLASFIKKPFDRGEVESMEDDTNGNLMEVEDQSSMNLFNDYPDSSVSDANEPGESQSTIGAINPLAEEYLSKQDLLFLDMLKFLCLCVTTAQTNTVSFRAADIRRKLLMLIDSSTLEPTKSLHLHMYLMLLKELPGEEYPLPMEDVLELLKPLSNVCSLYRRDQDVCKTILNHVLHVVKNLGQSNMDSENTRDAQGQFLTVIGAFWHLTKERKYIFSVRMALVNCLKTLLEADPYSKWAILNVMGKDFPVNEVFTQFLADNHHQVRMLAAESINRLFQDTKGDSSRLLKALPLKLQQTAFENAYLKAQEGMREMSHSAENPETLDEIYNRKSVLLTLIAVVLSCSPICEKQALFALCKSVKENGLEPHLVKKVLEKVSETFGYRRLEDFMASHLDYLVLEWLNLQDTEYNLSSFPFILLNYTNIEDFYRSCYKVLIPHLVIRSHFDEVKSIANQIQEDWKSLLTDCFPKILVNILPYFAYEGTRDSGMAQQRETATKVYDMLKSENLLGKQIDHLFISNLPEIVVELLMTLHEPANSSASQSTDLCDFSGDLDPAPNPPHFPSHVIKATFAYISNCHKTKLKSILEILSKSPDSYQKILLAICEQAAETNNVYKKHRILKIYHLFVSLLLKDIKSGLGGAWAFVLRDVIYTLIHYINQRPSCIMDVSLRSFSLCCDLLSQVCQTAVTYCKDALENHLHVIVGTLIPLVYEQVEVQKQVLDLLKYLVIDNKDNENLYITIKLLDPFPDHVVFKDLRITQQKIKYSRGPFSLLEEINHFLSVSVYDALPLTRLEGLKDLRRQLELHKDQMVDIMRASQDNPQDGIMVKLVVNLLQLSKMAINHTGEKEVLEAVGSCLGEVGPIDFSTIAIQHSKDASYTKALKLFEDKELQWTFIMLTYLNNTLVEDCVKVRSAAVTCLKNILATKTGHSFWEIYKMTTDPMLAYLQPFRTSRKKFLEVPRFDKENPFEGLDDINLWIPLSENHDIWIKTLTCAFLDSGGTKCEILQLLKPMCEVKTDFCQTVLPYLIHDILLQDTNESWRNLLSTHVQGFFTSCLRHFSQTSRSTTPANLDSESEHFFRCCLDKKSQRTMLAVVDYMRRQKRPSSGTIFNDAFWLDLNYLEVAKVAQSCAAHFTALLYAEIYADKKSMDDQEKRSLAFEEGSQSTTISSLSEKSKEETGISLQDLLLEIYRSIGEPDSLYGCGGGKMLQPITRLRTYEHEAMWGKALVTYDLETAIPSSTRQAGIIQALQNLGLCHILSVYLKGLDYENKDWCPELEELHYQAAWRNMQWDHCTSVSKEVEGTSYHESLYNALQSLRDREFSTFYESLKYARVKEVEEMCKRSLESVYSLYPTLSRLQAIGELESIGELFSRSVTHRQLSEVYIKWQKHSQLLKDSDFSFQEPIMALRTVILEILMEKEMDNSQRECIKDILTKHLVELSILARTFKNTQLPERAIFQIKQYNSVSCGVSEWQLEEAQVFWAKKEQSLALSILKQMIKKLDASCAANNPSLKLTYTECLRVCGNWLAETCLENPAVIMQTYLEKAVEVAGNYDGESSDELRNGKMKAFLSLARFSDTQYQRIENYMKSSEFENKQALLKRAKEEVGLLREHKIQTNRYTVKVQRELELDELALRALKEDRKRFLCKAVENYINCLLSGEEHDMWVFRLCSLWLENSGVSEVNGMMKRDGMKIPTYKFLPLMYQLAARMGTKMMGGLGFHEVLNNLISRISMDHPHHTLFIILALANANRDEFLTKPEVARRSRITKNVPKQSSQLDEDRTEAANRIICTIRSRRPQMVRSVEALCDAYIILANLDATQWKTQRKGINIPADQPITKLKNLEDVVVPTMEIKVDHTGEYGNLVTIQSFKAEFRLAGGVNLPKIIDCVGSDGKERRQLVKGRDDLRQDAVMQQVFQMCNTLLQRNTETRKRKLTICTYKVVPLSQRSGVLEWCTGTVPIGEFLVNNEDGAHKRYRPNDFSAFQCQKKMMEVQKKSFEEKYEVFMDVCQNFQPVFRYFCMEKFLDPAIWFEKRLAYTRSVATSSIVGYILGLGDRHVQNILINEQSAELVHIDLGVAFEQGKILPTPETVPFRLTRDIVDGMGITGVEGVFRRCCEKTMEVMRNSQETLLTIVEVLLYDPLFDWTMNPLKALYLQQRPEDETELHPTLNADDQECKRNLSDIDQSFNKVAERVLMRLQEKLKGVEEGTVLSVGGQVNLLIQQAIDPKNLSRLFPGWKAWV

Tests used:
[1] = target: ATM (Homo sapiens (Human), UniProt Q13315); assay: biochemical
Text: Assay a): ATM Biochemical Potency
Data was collected by Caliper.

[2] = target: ATM (phospho-ATM Ser1981) in SN38 treated HT-29 cells (Homo sapiens (Human), UniProt Q13315); assay: cell-based
Procedure: Assay g): ATM SN-38 HT-29 Cellular Potency
SN38 causes single strand DNA breaks (SSBs) which are converted to double strand breaks (DSBs) during replication. ATM plays role of repairing DSBs. Inhibition of ATM was evaluated in SN38 treated HT-29 cells (ATCC, Cat #HTB-38) by high-Content Imaging System
The graphical views were then generated using Prism 7.0 (Graphpad).

[3] = tested on: phosp-KAP1 in MCF-7 cells; assay: phosp-KAP1 MCF-7 cellular potency assay (Assay f); type: cell-based; settings: Homo sapiens, MCF7, etoposide
Procedure: Assay f): phosp-KAP1 MCF-7 Cellular Potency
MCF-7 cells were seeded to a 384-well cell-culture plate, 25 μl/well which were incubated at 37° C. and 5% CO2 for 24 hr. Test compounds were added to the 384-well plates. Etoposide at final concentration of 100 μM was then added to each well except Vehicle control wells, which were incubated at 37° C. and 5% CO2 for 1 hour. After medium removal, cells were fixed by the addition of 25 μl/well of 8% paraformaldehyde in PBSA and incubated for 20 minutes at room temperature. After the plates were rinsed 3 times with PBSA, 50 ul permeabilization buffer (0.1% Triton X-100 in PBS) was added and the plates were incubated for 20 minutes at room temperature. After the plates were rinsed with PBSA, block the cells by adding 50 μl of Odyssey Blocking Buffer in 384-well plate and then incubate for 1.5 hours at room temperature. Remove blocking buffer by Plate washer (BioTek ELx405 select CW). […] The plates were rinsed 5 times with PBST (0.1% Tween-20 in PBS).
• 1) Fluorescence intensity (FI) was detected for each well. • 2) % inhibition is calculated as follow: […]

[4] = tested on: FaDu xenograft; assay: FaDu xenograft model, radiation combination (Assay i); type: in vivo, mouse; settings: combo with IR
Procedure: Assay i): FaDu Xenograft Model
Cell culture: FaDu tumor cells were cultured in an EMEM medium containing inactivated 10% fetal bovine serum, 100 U/ml penicillin and 100 μg/ml streptomycin in a 37° C., 5% CO2 incubator.
Inoculation and grouping: Xenografts were established by implantation of 100 μl of Fadu tumor cell suspension (5×10^6 cells/mouse) subcutaneously into the right flank of female immune-compromised BALB/c nude mice at least 6 weeks of age. Tumours were measured in two dimensions with calipers and the tumour volume was calculated using the following formula: tumor volume=(length×width^2)×0.5. When the average tumor volume reached 100 to 150 mm^3, tumour-bearing mice were randomized into treatment groups.
Treatment and tumor assessment: Animals received 3 to 6 cycles of treatment with compounds combined with radiation therapy. Each cycle included 5 consecutive treatment day plus 2 days' rest. Ionizing radiation was administered using a fractionated schedule of 2 Gy per day administered over 5 consecutive days (total radiation dose=10 Gy/cycle). Compound was given orally 10 minutes before irradiation. The tumour volume and body weight of the mice were measured twice weekly.
Statistical Analysis: The One-Way ANOVA test was used for statistical analysis of tumor volume between groups, and p<0.05 was considered as a significant difference.

## CC(C)n1c(=O)n(C)c2nnc3cc(F)c(-c4ccc([C@@H](C)OCCN5CCC6(CC6)C5)nc4)cc3c21 [Example 135, (R)-8-(6-(1-(2-(5-azaspiro[2.4]heptan-5-yl)ethoxy)ethyl)pyridin-3-yl)-7-fluoro-3-methyl-1-(tetrahydro-2H-pyran-4-yl)-1H-imidazo[4,5-c]cinnolin-2(3H)-one]
[1]; read-out: ATM IC50
  IC50: 4.4 nM

## C[C@@H](OCCN1CCC2(CC1)CC2)c1ccc(-c2ccc3nnc4c(c3c2)n(C2CCOCC2)c(=O)n4C)cn1 [Example 107, (R)-8-(6-(1-(2-(6-azaspiro[2.5]octan-6-yl)ethoxy)ethyl)pyridin-3-yl)-3-methyl-1-(tetrahydro-2H-pyran-4-yl)-1H-imidazo[4,5-c]cinnolin-2(3H)-one]
[1]; read-out: ATM IC50
  IC50: 2.8 nM
[2]
  IC50: 15 nM

## C[C@@H](OCCN1CCC2(CC2)C1)c1ccc(-c2ccc3nnc4c(c3c2)n(C2CCOCC2)c(=O)n4C)cn1 [Example 102, (R)-8-(6-(1-(2-(5-azaspiro[2.4]heptan-5-yl)ethoxy)ethyl)pyridin-3-yl)-3-methyl-1-(tetrahydro-2H-pyran-4-yl)-1H-imidazo[4,5-c]cinnolin-2(3H)-one]
[3]
  IC50: 12 nM
[1]
  IC50: 5.5 nM
[2]
  IC50: 17 nM
[4]; total IR 30 Gy (3 cycles), 20 mg/kg PO. BID
  Inhibition (% TGI) Combo: 83.5 ± 2.21 % TGI
[4]; total IR 30 Gy (3 cycles), 25 mg/kg PO. BID
  Inhibition (% TGI) Combo: 83.0 ± 3.03 % TGI
[4]; total IR 30 Gy (3 cycles), 40 mg/kg PO. BID
  Inhibition (% TGI) Combo: 93.7 ± 1.04 % TGI
[4]; total IR 30 Gy (3 cycles), 60 mg/kg PO. BID
  Inhibition (% TGI) Combo: 95.5 ± 1.63 % TGI
[4]; total IR 40 Gy (4 cycles), 50 mg/kg PO. BID
  Inhibition (% TGI) Combo: 93.4 ± 1.75 % TGI
[4]; total IR 40 Gy (4 cycles), 75 mg/kg PO. BID
  Inhibition (% TGI) Combo: 96.4 ± 0.91 % TGI

## C[C@@H](OCCN1CCC2(CC2)C1)c1ccc(-c2cc3c(cc2F)nnc2c3n(C3CCOCC3)c(=O)n2C)cn1 [Example 148, (R)-8-(6-(1-(2-(5-azaspiro[2.4]heptan-5-yl)ethoxy)ethyl)pyridin-3-yl)-7-fluoro-3-methyl-1-(tetrahydro-2H-pyran-4-yl)-1H-imidazo[4,5-c]cinnolin-2(3H)-one]
[1]
  IC50: 13 nM

## C[C@@H](OCCN1CC[C@@H](S(C)(=O)=O)C1)c1ccc(-c2ccc3nnc4c(c3c2)n(C2CCOCC2)c(=O)n4C)cn1 [Example 129, 3-methyl-8-(6-((R)-1-(2-((R)-3-(methylsulfonyl)pyrrolidin-1-yl)ethoxy)ethyl)pyridin-3-yl)-1-(tetrahydro-2H-pyran-4-yl)-1H-imidazo[4,5-c]cinnolin-2(3H)-one]
[1]
  IC50: 75 nM

## C[C@@H](OCCN1CCC(OC(F)(F)F)C1)c1ccc(-c2ccc3nnc4c(c3c2)n(C2CCOCC2)c(=O)n4C)cn1 (stereo partly drawn) [Example 106, 3-methyl-1-(tetrahydro-2H-pyran-4-yl)-8-(6-((1R)-1-(2-(3-(trifluoromethoxy)pyrrolidin-1-yl)ethoxy)ethyl)pyridin-3-yl)-1H-imidazo[4,5-c]cinnolin-2(3H)-one]
[1]; read-out: ATM IC50
  IC50: 4.2 nM
